Ab-14 light chain CDR variants: yeast mating affinities

Antigen: PDVDLGDISGINAS, a 14-residue peptide of the SARS-CoV-2 spike HR2 region.

Parent: Ab-14, a human scFv built as VH, the linker GGGGSGGGGSGGGGS, VL. Only the CDRs of the light chain vary.
VH: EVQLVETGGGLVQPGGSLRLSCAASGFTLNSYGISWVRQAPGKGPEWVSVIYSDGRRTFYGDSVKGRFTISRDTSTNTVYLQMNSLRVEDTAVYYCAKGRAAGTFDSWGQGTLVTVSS
VL: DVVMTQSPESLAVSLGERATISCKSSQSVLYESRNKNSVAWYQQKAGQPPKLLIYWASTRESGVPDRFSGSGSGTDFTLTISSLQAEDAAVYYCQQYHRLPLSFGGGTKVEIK

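Phage display of a naive human antibody library on the peptide gave the parent. This is the validation round: designs drawn from the data on random variants, tested in the same kind of assay. Several design methods are mixed in this list. Affinity was read by AlphaSeq, a pooled yeast mating assay with surface-displayed partners. The frequency of each diploid, read from paired DNA barcodes, reflects how well the two displayed proteins bind. The ratio of observed to expected reads was calibrated, replicate by replicate, on BCL2-family standards whose Kd was known from biolayer interferometry. The assay was run in six technical replicates.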

The parent's light chain CDRs are KSSQSVLYESRNKNSVA, WASTRES, QQYHRLPLS; each variant's own CDRs replace them letter for letter. Variants here have more than six changes. The Kd shown is the geometric mean over detected replicates; a lower Kd is a better binder. "nd" marks a missing value. The strain was present, yet no cells mated with the target were sequenced in any replicate, which points to weak or no binding. Empty control strains, which show no peptide, gave a signal in 4% of pairings with all light chain designs; the median was 430 nM and 95% of these signals were weaker than 38 nM. No background was subtracted. For each scFv, signals with the empty controls are counted beside the result.

For MITAAPNAYGGNRSNIA | DKEISVN | QQYHHLPLS, the assay gave 15 nM (6 of 6 replicates; controls 3 of 18). With KFEVSMLYESRNGNSVA | NASTRSS | QQYHRLPLS the result was 13 nM (6 of 6 replicates; controls 1 of 18). The variant MLSQMWALGQKAKNSVA | QASMRFN | QQYDRLPLI gave 170 nM (5 of 6 replicates; controls 1 of 18). The variant TISQMTSLFSQSINNVA | EVSTREE | QQYDRLPLM showed 6.9 nM (6 of 6 replicates; controls 0 of 18). The variant MISGLVMSESRLKNSVA | QTTTRES | QQYDRLPLS gave 3.0 nM (6 of 6 replicates; controls 0 of 18). The variant KLRQSTAYLMENKNSVA | ELTTRGS | QQYFRLPLS showed 2.1 nM (6 of 6 replicates; controls 0 of 18).

The variant QLGAVYDMTSKNKNSVA | EQSTREN | QQYHRLPLS gave 3.5 nM (6 of 6 replicates; controls 0 of 18). The variant MFSQGVMVGWLTRNSVA | NSETRES | QQYDRLPLI showed 54 nM (5 of 6 replicates; controls 0 of 18). The variant KIGHGLTTEMYNRNSVA | QTETRVQ | QHYHRLPLS gave 13 nM (6 of 6 replicates; controls 1 of 18). With VVMQNFIDGMERQYSIA | ETTRVME | QQYFHLPLI the result was 57 nM (5 of 6 replicates; controls 0 of 18). With TIPTLMGHVSKHTNNVA | DQQTRED | QQYNRLPLS the result was 1.0 nM (6 of 6 replicates; controls 0 of 18). With KCQGSQLYESRNKNAVA | NASYRLD | QQYHRLPLS the result was 5.0 nM (6 of 6 replicates; controls 1 of 18).

The variant KLSQSVMLESRNKNAVA | EASTRMS | QDYHRLPLS gave 1.2 nM (6 of 6 replicates; controls 1 of 18). With QLGWVDSGDTLSQGAIA | HAAELVD | QQYFRLPLL the result was 7.2 nM (6 of 6 replicates; controls 0 of 18). The variant KINERLRSGENEQHSIA | NATEIVH | QQYHNLPLG showed 24 nM (6 of 6 replicates; controls 0 of 18). The variant GILSQMDGTSAYKENIA | NEAERLR | QQYQRLPLT gave 4.7 nM (6 of 6 replicates; controls 0 of 18). The variant MFAGAMYGGGNDWNNIA | EAMTYIK | QQYSRLPLI showed 140 nM (1 of 6 replicates; controls 0 of 18). The variant MLSDLVKMGSRNTNSVA | DNSTRGP | QQYDRLPLS showed nd (0 of 6 replicates; controls 0 of 18).

With KLNDDFQVYERNNGSVA | DAIISEA | QQYARLPLI the result was 6.5 nM (6 of 6 replicates; controls 2 of 18). The variant KLSSEYFDSYGNRQAVA | ENEATSN | QQYSLLPLS showed nd (0 of 6 replicates; controls 0 of 18). The variant KLQWSVMLQSRNKNSVA | QASTRMM | QQYHRLPLS gave 3.4 nM (6 of 6 replicates; controls 0 of 18). The variant SLQQSWLYQSRNKNSVA | NASTREW | QQYHRLPLS showed 1.2 nM (6 of 6 replicates; controls 3 of 18). For MLSEVLHMLGVAKNSIA | DLVLRAN | QQYHRLPLM, the assay gave nd (0 of 6 replicates; controls 0 of 18). The variant TLYMGMTEARDSKHAIA | DNNERDR | QQYHRLPLV showed 15 nM (6 of 6 replicates; controls 1 of 18).

For KVSEFMRGLMQRTDSIA | DNVTRNN | QQYDRLPLS, the assay gave 130 nM (6 of 6 replicates; controls 4 of 18). With QLSSITGHMSMIKNNVA | EMETRED | QQYERLPLS the result was 9.3 nM (6 of 6 replicates; controls 0 of 18). For QMKASLLQGIYIQDSVA | SSDIREL | QQYHHLPLS, the assay gave 20 nM (6 of 6 replicates; controls 1 of 18). The variant MVSQLMLWGLHYKNSIA | EAVTRLN | QQYDRLPLF gave 190 nM (2 of 6 replicates; controls 1 of 18). The variant KLRMSTGYESRNEDSIA | DNSTRGR | QQYHRLPLS showed 83 nM (6 of 6 replicates; controls 0 of 18). The variant TLYGLSNSMSKEKNNVA | EMSTREN | QQYDRLPLV gave 5.7 nM (6 of 6 replicates; controls 1 of 18).

For TISQMTSLFSQSINNVA | EVSMREK | QQYDRLPLA, the assay gave 4.9 nM (6 of 6 replicates; controls 2 of 18). With KCEQSWLYESRVKNNVA | NASQRES | QQYHRLPLS the result was 2.5 nM (6 of 6 replicates; controls 1 of 18). The variant TISQSWFIEQKNKNNVA | EMTTREN | QDYDRLPLS gave 57 nM (6 of 6 replicates; controls 0 of 18). The variant MLEEYQSYGAANLNAVA | DANCTMF | QQYYRLPLS showed 12 nM (6 of 6 replicates; controls 2 of 18). With MMSMMPNEPTIDSNAIA | DHVQRNT | QQYDRLPLS the result was 5.4 nM (1 of 6 replicates; controls 1 of 18). The variant KLLQTVGNGRYNRNNVA | HMTMRED | QQYFRLPLS showed 120 nM (5 of 6 replicates; controls 0 of 18).

Repeated from above, the 6 best binders with a signal in all replicates:

TIPTLMGHVSKHTNNVA | DQQTRED | QQYNRLPLS: 1.0 nM (6 of 6 replicates; controls 0 of 18).
KLSQSVMLESRNKNAVA | EASTRMS | QDYHRLPLS: 1.2 nM (6 of 6 replicates; controls 1 of 18).
SLQQSWLYQSRNKNSVA | NASTREW | QQYHRLPLS: 1.2 nM (6 of 6 replicates; controls 3 of 18).
KLRQSTAYLMENKNSVA | ELTTRGS | QQYFRLPLS: 2.1 nM (6 of 6 replicates; controls 0 of 18).
KCEQSWLYESRVKNNVA | NASQRES | QQYHRLPLS: 2.5 nM (6 of 6 replicates; controls 1 of 18).
MISGLVMSESRLKNSVA | QTTTRES | QQYDRLPLS: 3.0 nM (6 of 6 replicates; controls 0 of 18).

The authors averaged sequences with at least three values out of six and counted those with two or fewer as poor binders. The range of this assay differs from that of the first round, and the authors advise against merging the two.

Reference: Li et al. 2023, doi:10.1038/s41467-023-39022-2. File: FLAb, binding data.